Assays:
GC-B [1] = conditions: ref Suga et al. [1992]; cited from earlier work
From the text: (§1) As activation of either GC-B or GC-A signaling leads to an increase in cGMP concentrations, we examined whether stimulation of each receptor would lead to the desensitization of the other receptor.

αT3-1 cells = conditions: ref Fowkes et al. [2000]; cited from earlier work
From the text: as §1

GC-B [2] = biological target: T1, GC-B (Rattus norvegicus, UniProt P16067); assay: Effect of natriuretic peptide pre-treatment on CNP-stimulated (GC-B) cGMP accumulation in GH3 cells; type: cell-based; conditions: 100 nM ANP pre-treatment 6 h, then 100 nM CNP plus 1 mM IBMX 15 min; ns, P > 0.05; Fig. 3c
T1 construct: rapid homologous desensitization of endogenous GC-B receptors in GH3 cells; endogenous in cells; host or cells: GH3 rat somatolactotrope cells
T1 sequence (P16067 17-1047): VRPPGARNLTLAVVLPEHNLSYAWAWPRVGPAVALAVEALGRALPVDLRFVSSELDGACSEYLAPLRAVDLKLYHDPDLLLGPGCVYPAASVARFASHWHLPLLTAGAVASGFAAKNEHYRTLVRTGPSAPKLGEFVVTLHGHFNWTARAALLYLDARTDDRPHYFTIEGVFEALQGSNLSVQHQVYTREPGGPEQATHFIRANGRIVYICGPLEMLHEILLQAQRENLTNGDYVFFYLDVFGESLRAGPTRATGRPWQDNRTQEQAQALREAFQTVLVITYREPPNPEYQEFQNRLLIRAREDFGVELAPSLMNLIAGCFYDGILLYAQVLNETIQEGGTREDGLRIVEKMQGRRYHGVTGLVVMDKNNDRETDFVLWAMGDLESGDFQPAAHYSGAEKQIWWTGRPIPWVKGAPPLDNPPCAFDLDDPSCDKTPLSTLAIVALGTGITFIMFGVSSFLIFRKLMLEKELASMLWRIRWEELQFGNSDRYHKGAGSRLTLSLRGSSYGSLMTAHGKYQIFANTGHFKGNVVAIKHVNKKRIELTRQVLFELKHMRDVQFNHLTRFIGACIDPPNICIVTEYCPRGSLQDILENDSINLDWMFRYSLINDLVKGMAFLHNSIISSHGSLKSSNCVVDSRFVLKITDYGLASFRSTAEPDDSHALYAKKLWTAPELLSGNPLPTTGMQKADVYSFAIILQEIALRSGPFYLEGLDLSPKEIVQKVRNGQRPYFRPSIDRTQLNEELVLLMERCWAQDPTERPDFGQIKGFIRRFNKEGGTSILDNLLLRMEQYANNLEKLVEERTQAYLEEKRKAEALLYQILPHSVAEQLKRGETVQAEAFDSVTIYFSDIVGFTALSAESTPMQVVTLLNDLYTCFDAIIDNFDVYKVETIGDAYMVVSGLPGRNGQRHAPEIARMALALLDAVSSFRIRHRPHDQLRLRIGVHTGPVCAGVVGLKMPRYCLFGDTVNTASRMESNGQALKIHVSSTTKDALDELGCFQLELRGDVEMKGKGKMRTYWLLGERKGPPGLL
Procedure: Having established that GC-B signaling but not that of GC-A receptors, underwent rapid homologous desensitization, we next examined the effect of prolonged exposure of each receptor to its specific ligand. GH3 cells pre-treated with either ANP or CNP for 0 (control) to 6 h reduced the response to a subsequent 15-min treatment of ANP or CNP (with IBMX). […] The amount of cGMP measured from the 15-min pre-treatment sample was reduced by 39.6 ± 0.002 % (***P < 0.001). This effect was maintained up to the 6-h pre-treatment with CNP, which was reduced by 37.9 ± 7.1 % compared with the control (***P < 0.001).
Fig. 3 Effect of chronic exposure to CNP and ANP on GC-B- and GC-A-dependent cGMP accumulation in GH3 cells. Cells were initially treated with (a) 100 nM CNP or (b) 100 nM ANP in PSS without IBMX for 0 to 6 h. The medium was removed and replaced with 100 nM CNP (a) or 100 nM ANP (b) for 15 min in the presence of 1 mM IBMX. […]
In similar experiments designed to examine the effect of ANP pre-exposure to GC-A activity, a significant reduction in cGMP accumulation was observed within 30 min of ANP pre-treatment (by 28.9 ± 3.1 % compared with the control, *P < 0.05). […] In order to test the receptor specificity of the observed down-regulation of GC-B upon pre-treatment with CNP and of GC-A upon pre-treatment with ANP, the effects of ANP on GC-B and CNP on GC-A desensitization were determined. […]

CC[C@H](C)[C@@H]1NC(=O)[C@H](CCCNC(=N)N)NC(=O)[C@H](CC(=O)O)NC(=O)[C@H]([C@@H](C)CC)NC(=O)[C@H](CCCNC(=N)N)NC(=O)CNC(=O)CNC(=O)[C@H](Cc2ccccc2)NC(=O)[C@@H](NC(=O)[C@H](CO)NC(=O)[C@H](CO)NC(=O)[C@H](CCCNC(=N)N)NC(=O)[C@H](CCCNC(=N)N)NC(=O)[C@H](CC(C)C)NC(=O)[C@@H](N)CO)CSSC[C@@H](C(=O)N[C@@H](CC(N)=O)C(=O)N[C@@H](CO)C(=O)N[C@@H](Cc2ccccc2)C(=O)N[C@@H](CCCNC(=N)N)C(=O)N[C@@H](Cc2ccc(O)cc2)C(=O)O)NC(=O)CNC(=O)[C@H](CC(C)C)NC(=O)CNC(=O)[C@H](CO)NC(=O)[C@H](CCC(N)=O)NC(=O)[C@H](C)NC(=O)CNC1=O [ANP, atrial natriuretic peptide]
activation of the reciprocal receptor (GC-B [1]): can activate the reciprocal receptor, albeit only at pharmacological concentrations | desensitization of the other receptor (αT3-1 cells): fail to desensitize the other receptor | CNP-stimulated cGMP after ANP pre-treatment vs control (GC-B [2]): not significantly different from the control samples
